Biological target: ERα (Homo sapiens, UniProt P03372)
Experiment: ERE luciferase reporter gene assay in T47D-KBluc cells (target engagement)
Conditions: read-out: ER-α Luciferase IC50, 10% FBS, 24 hours, Table 3 cereblon centric PROTACs
Experimental: Chimeric molecules were assessed for target engagement in T47D cells using the commercial kit of ERE luciferase reporter gene assay. In the assay, 10% FBS was included and estrogen level was measured to be 10 pM.
ERE Luciferase Assay for Compounds in Table 1-3.
T47D-KBluc cells (ATCC #CRL_2865, T47D human breast cancer cells stably transfected with estrogen responsive element/promoter/luciferase reporter gene) were seeded into 96-well white opaque plates in RPMI growth medium supplemented with 10% fetal bovine serum and allowed to adhere overnight in a 37° C. humidified incubator. The following day, cells were treated with PROTACs in a 12-point concentration curve (top final concentration of 300 nM with subsequent concentrations being 3-fold less with 2 pM being the lowest concentration in the assay). Each PROTAC was tested independently in two experiments on 96-well plates. After 24 hours, media was removed and lysis buffer was added to the wells. Following lysis, Bright-Glo™ Luciferase Assay Substrate (Prornega, Madison Wis.) was added and the luciferase activity was measured using a Cytation 3 plate reader (TioTek™, Winooski, Vt.). Each compound was assayed in duplicates and the activity was calculated as IC50 using GraphPad Prism software (San Diego, Calif.).

Amino acid sequences for entries named in this document (tags omitted).
UniProt P03372, whole entry: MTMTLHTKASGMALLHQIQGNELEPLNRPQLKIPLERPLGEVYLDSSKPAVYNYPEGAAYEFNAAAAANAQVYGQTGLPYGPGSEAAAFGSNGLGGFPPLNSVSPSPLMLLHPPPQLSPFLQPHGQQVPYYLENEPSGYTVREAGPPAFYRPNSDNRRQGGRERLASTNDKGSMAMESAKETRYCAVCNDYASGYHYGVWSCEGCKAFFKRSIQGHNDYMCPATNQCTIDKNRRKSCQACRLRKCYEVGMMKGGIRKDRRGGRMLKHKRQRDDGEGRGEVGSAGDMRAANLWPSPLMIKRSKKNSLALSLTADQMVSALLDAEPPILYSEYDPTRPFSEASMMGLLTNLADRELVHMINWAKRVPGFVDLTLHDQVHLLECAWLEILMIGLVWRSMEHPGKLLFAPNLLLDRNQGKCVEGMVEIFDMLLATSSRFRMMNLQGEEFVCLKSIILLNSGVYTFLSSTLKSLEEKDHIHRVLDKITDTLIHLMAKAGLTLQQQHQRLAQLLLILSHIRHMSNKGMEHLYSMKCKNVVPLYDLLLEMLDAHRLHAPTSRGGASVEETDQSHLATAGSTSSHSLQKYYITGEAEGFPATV

O=C1CCC(N2Cc3c(cc(F)c(N4CCN(CCCOc5ccc(Oc6c(-c7ccc(OC(F)(F)F)cc7)sc7cc(O)ccc67)cc5)CC4)c3F)C2=O)C(=O)N1 (stereo not shown)
IC50: 58.2 nM

Source: patent US11384063B2, “Modulators of estrogen receptor proteolysis and associated methods of use” (Arvinas Operations, Inc., priority 2017, dated 2022)
